Patent publication US6953800B2, “Use of selective antagonists of the α1B-adrenergic receptor for improvement of sexual dysfunction” (Recordati S.A. Chemical, priority 1999, dated 2005)

Target: T1, bovine α1a-adrenoceptor (Bos taurus, UniProt P18130)
T1 construct: expressed in transfected cells; host or cells: COS-7 cells (transient), membranes
T1 sequence (P18130 1-466): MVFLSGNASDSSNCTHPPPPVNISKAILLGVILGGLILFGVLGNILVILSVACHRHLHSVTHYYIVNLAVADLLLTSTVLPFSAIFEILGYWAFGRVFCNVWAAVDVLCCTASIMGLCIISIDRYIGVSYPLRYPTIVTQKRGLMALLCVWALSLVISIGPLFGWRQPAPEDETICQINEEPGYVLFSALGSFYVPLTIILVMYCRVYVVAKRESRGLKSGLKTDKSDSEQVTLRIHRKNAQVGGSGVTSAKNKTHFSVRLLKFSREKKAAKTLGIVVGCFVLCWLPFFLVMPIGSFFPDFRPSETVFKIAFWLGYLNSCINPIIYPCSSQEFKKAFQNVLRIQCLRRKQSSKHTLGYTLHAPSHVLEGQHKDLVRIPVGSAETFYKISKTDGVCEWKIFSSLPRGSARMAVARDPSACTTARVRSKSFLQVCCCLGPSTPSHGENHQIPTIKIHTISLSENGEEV
Assay: [3H]Prazosin binding, bovine α1a-adrenoceptor in COS-7 cell membranes
Settings: COS-7 membranes, read-out: Affinity (Ki) α1a, animal cloned receptors

## COc1cc2nc(N3CCN(C(=O)c4ccco4)[C@@H]4CCCC[C@@H]43)nc(N)c2cc1OC [Compound B, 4-Amino-6,7-dimethoxy-2-[(4aR,8aS)-4-(2-furoyl)-cis-octahydro-1-quinoxalinyl]-quinazoline hydrochloride]
  Ki: 0.0329 µM

Structures can show the parent of a compound that is named as a salt.
